Ab-14 heavy chain CDR variants: yeast mating affinities

The target is the same throughout: PDVDLGDISGINAS, from the HR2 region of SARS-CoV-2 spike.

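Phage display of a naive human antibody library on the peptide gave the parent. AAYL49 was designed without a model: most single CDR substitutions and a random sample of double and triple ones. In AlphaSeq, yeast of one mating type display the scFv and yeast of the other type display the target. The frequency of each diploid, read from paired DNA barcodes, reflects how well the two displayed proteins bind. The ratio of observed to expected reads was calibrated, replicate by replicate, on BCL2-family standards whose Kd was known from biolayer interferometry. The assay was run in three technical replicates.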

The variants keep the light chain, the linker and the frameworks of Ab-14 (scFv order VH, a 15-residue (Gly4Ser)3 linker, VL).
VH: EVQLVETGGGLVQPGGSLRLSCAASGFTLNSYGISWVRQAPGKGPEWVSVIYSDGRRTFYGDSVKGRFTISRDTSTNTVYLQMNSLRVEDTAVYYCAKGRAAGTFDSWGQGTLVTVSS
VL: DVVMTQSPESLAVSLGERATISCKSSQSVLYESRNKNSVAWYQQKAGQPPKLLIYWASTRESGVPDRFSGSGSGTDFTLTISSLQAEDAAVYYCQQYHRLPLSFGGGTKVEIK

Each variant is given by its three heavy chain CDRs, as the data file delimits them; those of the parent are GFTLNSYGIS, VIYSDGRRTFYGDSVK, GRAAGTFDS. Affinities are written as log10 Kd with Kd in nM; a lower number is a better binder. Replicates are averaged; those with no signal do not enter the mean. "n.d." means that the variant was in the library but no mating with the target was seen in that replicate; the authors take this as a sign of poor binding, and no number exists.

CDR-H1 | CDR-H2 | CDR-H3 | log10 Kd, replicates | mean, log10 nM | control signals
GFTINSYGIS | VIYSDGRRTFYGDSVE | GRADGTFDS | 1.21 / 1.45 / 1.48 | 1.38 | 1/9 (4.84)
GFTLNSYGIS | VIIFDGRRTVYGDSVK | GRAAGTFDS | n.d. / n.d. / 5.23 | 5.23 | 0/9
GFTTNSYGIS | VIYSDGRRTFYGRSDK | GRAAGTFDS | 3.66 / n.d. / n.d. | 3.66 | 4/9 (3.75)
GFTLNSYGIS | VIYSDGFRTFIGDSVK | GRAAGTFDS | n.d. / n.d. / n.d. | n.d. | 3/9 (3.74)
WFTLNSFGIS | VIYSDGRRTFYGDSVK | GRAAGTFDL | n.d. / 3.03 / n.d. | 3.03 | 0/9
GFWLNSYGIS | VIYSEGRRTFYGDSVK | GRAAGTFDW | n.d. / n.d. / n.d. | n.d. | 0/9
GFTLNSYGIS | VIYSDGRRRFYCDSVK | GRAAGTFDS | 1.57 / 1.49 / 1.22 | 1.43 | 0/9
GFTLNSYGIS | GIYTDGRRTFYGDSVK | LRAAGTFDS | 5.28 / 4.62 / 4.48 | 4.79 | 4/9 (4.68)
EFTLNSYGIS | VIYSDIRRTFYHDSVK | GRAAGTFDS | n.d. / n.d. / n.d. | n.d. | 0/9
GFTLNSYGIS | VIYSDGRRAFHGDSVK | GEAAGTFDS | n.d. / 4.14 / n.d. | 4.14 | 3/9 (5.03)
GFTLNSYGIS | TIVSDGRRTFYGDSVK | GRAAGTFDG | n.d. / n.d. / n.d. | n.d. | 2/9 (3.07)
GFTENMYGIS | VIYSDGRFTFYGDSVK | GRAAGTFDS | n.d. / n.d. / n.d. | n.d. | 1/9 (4.27)
GFTFNSYGIS | VIYSEGRRTFYGDSVK | GRAAGTFDS | n.d. / n.d. / n.d. | n.d. | 0/9
GFTLNSYGIS | VIWSDGRYTFYGDSVK | GRAAGVFDS | n.d. / n.d. / n.d. | n.d. | 0/9
GFTLNSYGIS | VIYSDGRRTFYGDSNK | GRASGTFDS | n.d. / n.d. / n.d. | n.d. | 5/9 (3.67)
WFTLYSYGIS | VIYSDVRRTFYGDSVK | GRAAGTFDS | n.d. / n.d. / n.d. | n.d. | 2/9 (4.12)
GFTLNSYGIS | VIYSDGRRTFYGDSVK | GRAAKTFDS | 1.29 / 0.97 / 1.09 | 1.12 | 1/9 (3.57)
GFTLNSYGIS | VIYSDGRWTFYGDSVK | LRAAGTFDS | n.d. / n.d. / n.d. | n.d. | 0/9
GNTLNSYGIS | VIYSDGRRTFYGDSVI | GRAWGTFDS | n.d. / n.d. / n.d. | n.d. | 0/9
GWTLNSYGIS | VIYSDGRRTVYGGSVK | GRAAGTFDS | n.d. / n.d. / n.d. | n.d. | 0/9
NFTLNSYGPS | VIYSDGRRTFYGDSVK | GRAAGTFQS | 6.13 / 3.97 / 3.60 | 4.57 | 6/9 (4.18)
GFTLNSYGIS | VIYSDGRRTFYGDSVK | GFGAGTFDG | 2.45 / 2.40 / 2.25 | 2.37 | 5/9 (4.43)
GFTLNFYGIS | VIYSDGRRTFYKDSVK | GRAAGTFDL | n.d. / n.d. / 1.53 | 1.53 | 0/9
GFTLNSYGIS | VIYSAGRRTFYGDSAK | GRAAGCFDS | n.d. / n.d. / n.d. | n.d. | 1/9 (4.55)
GFTLNSYGIS | CIYSDGRRTFYGDFVK | GRAAGTFDS | n.d. / n.d. / 4.07 | 4.07 | 0/9
GFTLISYGIH | VIYSDGRRTFYGDSVK | GRAAGTFDS | 2.21 / 2.51 / 3.23 | 2.65 | 2/9 (4.71)
GFTLNQYGIS | VISSDGRRTFLGDSVK | GRAAGTFDS | 3.49 / 3.48 / n.d. | 3.49 | 2/9 (4.57)
GFTLNSYGIS | MIYSDGRRTFYGDSVK | GRAATTFDS | n.d. / n.d. / 5.17 | 5.17 | 1/9 (3.92)
GFTLNSYGIS | VIYSDGRRTFYGDSNK | GRAAGTFDS | n.d. / n.d. / n.d. | n.d. | 0/9
GFTLNSYGIS | VIYSDGHRTFNGDSVK | GRAAGEFDS | n.d. / n.d. / 5.03 | 5.03 | 1/9 (3.96)
GFTLNSYGIS | VIYSDGRRGFYGDSVK | GRAIGTFDR | n.d. / n.d. / n.d. | n.d. | 0/9
GFTLNSYGIQ | VIYSDGRRTFYGDSVK | GRAWGTWDS | n.d. / n.d. / 3.03 | 3.03 | 2/9 (3.33)
HFDLNSYGIS | VPYSDGRRTFYGDSVK | GRAAGTFDS | n.d. / n.d. / 3.55 | 3.55 | 2/9 (4.06)
GFTLNSYGIS | VIYSDERRTFYGDSSK | GRAAGTFDS | n.d. / 3.96 / n.d. | 3.96 | 2/9 (3.27)
GFTLNSYGIS | VIYSDGRRTFHGDSVK | GRAAGTHDS | n.d. / 5.31 / 4.43 | 4.87 | 4/9 (4.76)
GFTLFSYYIS | VIYSDGRRTFYGDSVK | GWAAGTFDS | n.d. / n.d. / n.d. | n.d. | 0/9
GVTLNSYGIS | VIYSDGRRPFYGDSVK | GRASGTFDS | n.d. / n.d. / n.d. | n.d. | 2/9 (3.68)
GFTLNSYGIM | VIYGDGRRTFYGISVK | GRAAGTFDS | n.d. / n.d. / n.d. | n.d. | 0/9
GFTLNSYGIS | VIYSDGRRTFYGDSHK | GMAAGTFDS | 2.89 / 2.33 / 1.94 | 2.39 | 0/9

The first 4 entries again:

CDR-H1 | CDR-H2 | CDR-H3 | log10 Kd, replicates | mean, log10 nM | control signals
GFTINSYGIS | VIYSDGRRTFYGDSVE | GRADGTFDS | 1.21 / 1.45 / 1.48 | 1.38 | 1/9 (4.84)
GFTLNSYGIS | VIIFDGRRTVYGDSVK | GRAAGTFDS | n.d. / n.d. / 5.23 | 5.23 | 0/9
GFTTNSYGIS | VIYSDGRRTFYGRSDK | GRAAGTFDS | 3.66 / n.d. / n.d. | 3.66 | 4/9 (3.75)
GFTLNSYGIS | VIYSDGFRTFIGDSVK | GRAAGTFDS | n.d. / n.d. / n.d. | n.d. | 3/9 (3.74)

Three control strains display no target. For library AAYL49, 15% of the pairings with them gave a signal, with a median of 4.06 and one signal in twenty below 2.83, so weak values seen in few replicates may be background. The control count says in how many pairings with the empty strains this scFv gave a signal, with their mean in brackets.

Values reported by Engelhart et al. 2022, doi:10.1038/s41597-022-01779-4 (FLAb copy).